Experimental data from patent publication US11459338B2, “Heterocyclic compounds as PRMT5 inhibitors” (JUBILANT EPISCRIBE LLC, priority 2018, dated 2022).

Chains of the proteins cited; added tags and fusions are not shown.
UniProt O14744, whole entry: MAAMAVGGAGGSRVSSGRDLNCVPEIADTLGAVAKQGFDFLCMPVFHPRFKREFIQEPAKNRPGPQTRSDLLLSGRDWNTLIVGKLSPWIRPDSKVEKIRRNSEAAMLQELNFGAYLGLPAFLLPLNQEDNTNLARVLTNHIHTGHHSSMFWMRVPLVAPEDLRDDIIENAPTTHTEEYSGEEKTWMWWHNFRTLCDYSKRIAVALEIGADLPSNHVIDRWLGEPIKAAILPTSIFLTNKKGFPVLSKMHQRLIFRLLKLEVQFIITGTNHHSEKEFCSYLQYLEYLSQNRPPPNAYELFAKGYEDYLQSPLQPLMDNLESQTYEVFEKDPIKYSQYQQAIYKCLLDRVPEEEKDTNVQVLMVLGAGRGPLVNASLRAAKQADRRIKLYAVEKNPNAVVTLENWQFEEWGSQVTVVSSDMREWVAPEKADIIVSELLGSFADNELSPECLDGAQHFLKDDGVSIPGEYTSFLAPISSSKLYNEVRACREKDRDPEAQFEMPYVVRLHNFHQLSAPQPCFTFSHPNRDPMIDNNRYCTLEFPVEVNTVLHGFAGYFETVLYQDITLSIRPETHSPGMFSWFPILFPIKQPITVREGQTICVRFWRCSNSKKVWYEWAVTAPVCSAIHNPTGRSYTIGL
UniProt Q9BQA1, whole entry partner: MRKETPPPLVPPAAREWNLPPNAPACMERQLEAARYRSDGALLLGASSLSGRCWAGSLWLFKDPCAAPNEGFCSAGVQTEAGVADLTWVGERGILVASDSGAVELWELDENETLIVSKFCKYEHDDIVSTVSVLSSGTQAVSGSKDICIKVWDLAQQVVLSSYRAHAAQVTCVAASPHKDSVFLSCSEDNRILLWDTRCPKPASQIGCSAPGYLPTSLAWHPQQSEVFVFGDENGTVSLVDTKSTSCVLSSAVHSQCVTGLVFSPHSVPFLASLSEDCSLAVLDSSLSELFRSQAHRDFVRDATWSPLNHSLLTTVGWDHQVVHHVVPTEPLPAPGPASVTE

Assays:
PRMT5/MEP50 = PRMT5/MEP50 (Homo sapiens, UniProt O14744); test: PRMT5/MEP50 enzyme assay on peptide substrates (3H-SAM Flashplate); type: biochemical; settings: read-out: PRMT5 Enzyme IC50 μM; PRMT5/MEP50 10 nM, H4 1-15aa peptide 100 nM, 3H-SAM 1 μM
Z-138 cells = test: Z-138 long term proliferation assay (Cell Titer Glo); type: cell-based; settings: read-out: PRMT5 Z138 GI50 Day 8 μM, cell viability

Q: With O=C(NC[C@H](O)CN1CCc2ccccc2C1)c1cn2cc(Br)ccc2n1 as the compound, how does the IC50 (PRMT5/MEP50) read?
A: 0.01 to 1 µM

Q: And the GI50 (Z-138 cells)?
A: 10 to 1000 nM
